Measured values taken from patent publication US20040038861A1, “Methods and compositions for normalizing lipid levels in mammalian tissues” (priority 2001, published 2004).

T1: murine ramp 1/C1ins- receptor (murine, UniProt Q60755)
T1 sequence 1: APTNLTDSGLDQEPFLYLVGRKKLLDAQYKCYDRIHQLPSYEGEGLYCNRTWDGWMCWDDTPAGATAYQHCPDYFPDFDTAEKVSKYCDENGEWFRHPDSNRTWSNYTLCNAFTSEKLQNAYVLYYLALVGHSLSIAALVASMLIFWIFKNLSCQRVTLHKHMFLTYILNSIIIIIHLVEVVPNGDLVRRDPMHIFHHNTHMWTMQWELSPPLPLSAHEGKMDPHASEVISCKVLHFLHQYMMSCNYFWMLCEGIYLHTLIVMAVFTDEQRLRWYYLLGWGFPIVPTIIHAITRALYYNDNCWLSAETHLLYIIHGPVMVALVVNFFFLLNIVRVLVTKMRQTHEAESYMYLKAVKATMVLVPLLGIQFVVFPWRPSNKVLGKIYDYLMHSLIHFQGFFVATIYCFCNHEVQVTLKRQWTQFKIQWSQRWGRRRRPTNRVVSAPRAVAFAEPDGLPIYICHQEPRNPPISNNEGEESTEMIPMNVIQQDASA
T1 sequence 2: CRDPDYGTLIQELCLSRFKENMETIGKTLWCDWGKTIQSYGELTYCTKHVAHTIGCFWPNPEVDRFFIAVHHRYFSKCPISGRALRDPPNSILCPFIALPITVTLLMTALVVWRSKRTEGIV

B1: rat CGRP-1 (ligand)
peptide: SCNTATCVTHRLAGLLSRSGGVVKDNFVPTNVGSEAF
modifications: intra-molecular disulfide bond between the 2nd and 7th Cys residues; C-terminal amide (NH2)
B2: rat amylin (ligand)
peptide: KCNTATCATQRLANFLVRSSNNLGPVLPPTNVGSNTY
modifications: intra-molecular disulfide bond between the 2nd and 7th Cys residues; C-terminal amide (NH2)

Columns and labels:
soleus muscle = assay: Lipid metabolites (free fatty acid, glycerol, triglyceride; enzymatic analysis) in isolated soleus muscle from normally fed rats; format: cell-based, rat; conditions: 1 h, 100 nM amylin or CGRP-1, 4.4 μM norepinephrine, 23.7 nM insulin, control 78±21
[1] = biological target: T1, murine ramp 1/C1ins- receptor; assay: displacement of 20 nM [^3H]amylin, L6 myoblasts co-transfected with murine ramp 1 and C1ins-
Description: (§1) Cells were then washed and bound radioactivity determined by liquid scintillation counting. […] Each point represents the mean±SEM of three independent myoblast transfections from an experiment repeated at least twice.

[2] = biological target: T1, murine ramp 1/C1ins- receptor; assay: displacement of 20 nM [^3H]amylin, co-transfected L6 myoblasts; Cheng and Prusoff with Kd […]
Description: as §1
95% confidence intervals (nM) are bracketed.

Molecule	intramuscular free fatty acid content (soleus muscle) [nmol/g]	IC50 [1] [nM]	Ki [2] [nM]
rat CGRP-1	325 ± 56		
CSNLSTCVLGKLSQELHKLQTYPRTNTGSGTP (ligand) [salmon calcitonin]		1.9	
B1		63	
B2		23	7.4
ATQRLANFLVRSSNNLGPVLPPTNVGSNTY (C-terminal amide (NH2)) [^8,37rat amylin]		1270	399
